Data published in paper PMC11650849, “Brain endothelial permeability, transport, and flow assessed over 10 orders of magnitude using the in situ brain perfusion technique” (Fluids and Barriers of the CNS, 2024).

The chains behind the UniProt entries cited, without tags or fusion partners. Where a name states a change or a piece, a line headed by the entry shows the natural chain unless it says otherwise.
UniProt Q63016: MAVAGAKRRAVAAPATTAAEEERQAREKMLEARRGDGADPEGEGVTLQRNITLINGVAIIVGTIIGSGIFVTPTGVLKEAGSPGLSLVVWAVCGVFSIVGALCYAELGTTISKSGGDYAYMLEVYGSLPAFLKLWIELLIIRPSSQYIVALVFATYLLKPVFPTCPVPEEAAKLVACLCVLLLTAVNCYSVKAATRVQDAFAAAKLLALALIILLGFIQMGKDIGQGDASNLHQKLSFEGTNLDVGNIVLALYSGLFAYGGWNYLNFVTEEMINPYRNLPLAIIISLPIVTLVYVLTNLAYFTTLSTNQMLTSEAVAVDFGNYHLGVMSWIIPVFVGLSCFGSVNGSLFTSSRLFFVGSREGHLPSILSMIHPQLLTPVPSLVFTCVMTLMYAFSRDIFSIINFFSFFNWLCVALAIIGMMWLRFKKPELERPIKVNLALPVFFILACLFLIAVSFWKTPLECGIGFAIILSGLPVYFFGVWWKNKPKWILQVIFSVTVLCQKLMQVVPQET

Target: Lat-1 (Rattus norvegicus, UniProt Q63016)
Conditions: LAT1 substrates, tracer concentration

N[C@@H](Cc1ccc(N(CCCl)CCCl)cc1)C(=O)O [Melphalan (para)]
LogPS: −2.98
PS (perfusion 15-30 s): 0.00104 mL/s/g
